Results on one molecule are retold here after ChEMBL document CHEMBL1795228, “Air to lung partition coefficients for volatile organic compounds and blood to lung partition coefficients for volatile organic compounds and drugs” (Eur J Med Chem, 2008).

The series in a line: In-vivo plasma to lung partition coefficients of the compound, logP(lung) in rat. It counts as ADME, cell-free.

This is a selection: effects in other tests are not listed, and their absence says nothing.

For `CCC(=O)N(c1ccccc1)C1(COC)CCN(CCn2nnn(CC)c2=O)CC1`, the logP(lung) is -0.11.
